In patent US11767322B2 (BRISTOL-MYERS SQUIBB COMPANY, priority 2020, dated 2023):

System: MLKL phosphorylation in HT29-L23 human colorectal adenocarcinoma cells
Assay: MLKL phosphorylation high-content assay
Type: cell-based

Structure (SMILES) | IC50 (HT29-L23 cells, necroptosis induced with TNFα, SMAC mimetic and Z-VAD, 6 h, maximal inhibition defined by Nec1s, read-out: pMLKL IC50) [nM] | IC50 (Homo sapiens, read-out: pMLKL IC50, Table 23, representative compounds from WO2018/148626) [nM]
COc1c(-c2ccc(C)c(C(=O)NCC[C@H](O)c3ccc(Cl)cc3)c2F)ccn2nc(N)nc12 (single isomer, unassigned; enantiomer 2) [Example 136] | 1.4 | –
COc1ncc(-c2ccn3nc(N)nc3c2)cc1C(=O)NCC[C@H](O)c1ccc(Cl)cc1 [Example 157] | – | 115

Like-named read-outs stand apart in the source and are kept apart here.
